The half-life is the time in which the quantity being followed falls by half. A low value points to rapid decline.

SMILES strings stand for the structures.

Consider 1 compound from patent publication US20080103169A1, “COMPOSITIONS COMPRISING ACID LABILE PROTON PUMP INHIBITING AGENTS, AT LEAST ONE OTHER PHARMACEUTICALLY ACTIVE AGENT AND METHODS OF USING SAME” (priority 2006, published 2008).

The data set can be described thus: PPI half-life (serum concentration profile), n of 1 studies. The settings on record: human, oral. The format is in vivo. The source says:
The measure of a PPIs activity can be predicted by looking at AUC above 1 micromole. The elimination rate (Kel) is the only variable that can be changed to increase the AUC for a given PPI. Half-life=0.693/Kel
These are all n of 1 studies all performed on the same subject. (Unless otherwise stated, 1.68 g NaHCO3 was used as buffering agent)

On to `COc1ccc2[nH]c([S+]([O-])Cc3ncc(C)c(OC)c3C)nc2c1` (centres unmarked) [omeprazole, 5-methoxy-2-[[(4-methoxy-3,5-dimethyl-2-pyridinyl)methyl]sulfinyl]-1H benzimidazole], for which the half-life by setting is: (40 mg, Day 1, 40 mg given alone) 1.1 h; (Day 1, given as OME-IR 80 mg+Lansoprazole IR 80 mg) 1.4 h.
